The source of these data is patent US11555013B2, “Potent and selective inhibitors of monoamine transporters; method of making; and use thereof” (priority 2013, dated 2023).

This experiment deals with Swiss Webster mice. The experiment in a line: Mouse locomotor activity test. The note with it: in vivo.

`COC(=O)[C@H]1[C@@H](OC(=O)c2ccccc2)C[C@@H]2CC[C@H]1N2C` [cocaine, reference compound]: the “locomotor stimulation (ambulatory distance, FIG. 2)” value is “locomotor stimulation”.
